The chains behind the UniProt entries cited, without tags or fusion partners. Residues count along the entry.
UniProt Q18NS7, 19-182 limits assumed: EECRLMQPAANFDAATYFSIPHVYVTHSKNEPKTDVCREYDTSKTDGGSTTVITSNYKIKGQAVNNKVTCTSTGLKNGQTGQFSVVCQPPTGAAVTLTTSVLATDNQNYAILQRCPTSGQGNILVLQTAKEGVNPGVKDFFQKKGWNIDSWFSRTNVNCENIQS

According to paper PMC3408606 (Thrombosis and haemostasis, 2011):

Target: triplatin (Triatoma infestans, UniProt Q18NS7)

SMILES | N (stoichiometry of ligand binding)
CCCCC[C@H](O)/C=C/[C@H]1C(=O)C=C[C@@H]1C/C=C\CCCC(=O)O [PGJ2] | 1.080
CCCCC[C@H](O)/C=C/[C@H]1OC(O)C[C@H](O)[C@@H]1C/C=C\CCCC(=O)O (stereo partly shown) [TXB2] | 0.285
CCCCC[C@H](O)/C=C/[C@@H]1[C@@H](C/C=C\CCCC(=O)O)[C@H]2CO[C@@H]1C2 [U46619] | 0.876
CCCCC[C@H](O)/C=C/[C@H]1CC2CC(C2)[C@@H]1C/C=C\CCCC(=O)O [cTXA2] | 0.917
